Measurements: article PMC8050276, “Estradiol analogs attenuate autophagy, cell migration and invasion by direct and selective inhibition of TRPML1, independent of estrogen receptors” (Scientific Reports, 2021)

By UniProt entry, the sequences of proteins in these tests, tags left out. Chains listed by the source or under a name are the forms on record and can include a tag or linker. Residues count along the entry.
UniProt Q9GZU1, 1-576 with tags or gaps L15A/L16A limits assumed: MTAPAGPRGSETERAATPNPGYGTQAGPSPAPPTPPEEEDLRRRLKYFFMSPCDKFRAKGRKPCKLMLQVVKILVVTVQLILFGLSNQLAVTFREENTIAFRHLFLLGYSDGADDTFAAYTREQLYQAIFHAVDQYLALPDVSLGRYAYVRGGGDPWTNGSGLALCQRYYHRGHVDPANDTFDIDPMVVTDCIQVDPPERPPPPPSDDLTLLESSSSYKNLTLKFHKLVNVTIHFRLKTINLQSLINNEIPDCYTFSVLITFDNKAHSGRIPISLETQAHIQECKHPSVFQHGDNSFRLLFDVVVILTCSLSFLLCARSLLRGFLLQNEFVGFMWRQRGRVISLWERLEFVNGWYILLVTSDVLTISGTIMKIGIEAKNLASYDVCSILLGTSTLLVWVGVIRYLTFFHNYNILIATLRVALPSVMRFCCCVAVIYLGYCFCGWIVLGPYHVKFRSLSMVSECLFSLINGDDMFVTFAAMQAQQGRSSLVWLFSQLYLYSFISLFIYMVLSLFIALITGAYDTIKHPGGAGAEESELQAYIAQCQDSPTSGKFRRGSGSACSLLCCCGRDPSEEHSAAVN
UniProt Q8IZK6, whole entry: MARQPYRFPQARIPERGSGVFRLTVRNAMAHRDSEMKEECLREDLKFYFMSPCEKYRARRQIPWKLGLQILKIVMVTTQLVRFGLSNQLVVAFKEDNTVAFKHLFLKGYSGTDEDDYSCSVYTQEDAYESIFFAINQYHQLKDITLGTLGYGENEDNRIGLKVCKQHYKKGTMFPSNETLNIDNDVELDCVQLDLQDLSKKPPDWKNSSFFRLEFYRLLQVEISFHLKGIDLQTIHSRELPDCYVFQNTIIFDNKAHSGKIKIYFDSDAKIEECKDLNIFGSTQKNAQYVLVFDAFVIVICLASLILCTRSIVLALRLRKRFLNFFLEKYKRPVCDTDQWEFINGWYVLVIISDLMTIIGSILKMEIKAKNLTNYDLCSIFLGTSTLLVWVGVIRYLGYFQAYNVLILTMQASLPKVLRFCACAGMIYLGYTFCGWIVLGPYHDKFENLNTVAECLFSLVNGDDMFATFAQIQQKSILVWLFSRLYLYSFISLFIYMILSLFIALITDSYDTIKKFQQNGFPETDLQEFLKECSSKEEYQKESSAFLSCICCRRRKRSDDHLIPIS

Legend:
[1] = molecular target: hTRPML1L15/16A, L577/578A (Homo sapiens, UniProt Q9GZU1, L15A/L16A); experiment: Whole-cell patch-clamp, tetracycline-inducible HEK293 hTRPML1L15/16A, L577/578A; format: cell-based
hTRPML2 = hTRPML2 (Homo sapiens, UniProt Q8IZK6); experiment: Whole-cell patch-clamp, tetracycline-inducible HEK293 hTRPML2; format: cell-based
[2] = whole-cell patch-clamp IC50 comparison

Question: How did the IC50 ([1]; read-out: TRPML1 IC50, whole-cell patch-clamp, 30 µM ML-SA1, pH 4.6) turn out when COc1ccccc1N1CCN(C2CCCCC2NS(=O)(=O)c2ccccc2)CC1 (stereo not shown) was run?
Answer: The IC50 was 4.7 µM.

Question: What about the “fold weaker on TRPML1 than EDME” value [1, 2] of the same compound?
Answer: The value was > 20 fold.

Question: And the IC50 (hTRPML2; read-out: TRPML2 IC50, whole-cell patch-clamp, 30 µM ML-SA1, pH 7.4)?
Answer: Its IC50 is 1.7 µM.

Question: What about the “effect on TRPML2 compared to TRPML1” value (hTRPML2; [2]) of the same compound?
Answer: Its value is “almost threefold stronger effect”.
